# Earlier results as cited in patent US20230128372A1, “AZD1656 FOR USE IN THE TREATMENT OF PNEUMONITIS AND/OR MYCORDITIS CAUSED BY A CORONAVIRUS” (EXCALIBUR MEDICINES LIMITED, priority 2020, published 2023).
# By UniProt entry, the sequences of proteins in these tests, tags left out. Where a name states a change or a piece, a line headed by the entry shows the natural chain unless it says otherwise.
# UniProt P19367, whole entry, species assumed: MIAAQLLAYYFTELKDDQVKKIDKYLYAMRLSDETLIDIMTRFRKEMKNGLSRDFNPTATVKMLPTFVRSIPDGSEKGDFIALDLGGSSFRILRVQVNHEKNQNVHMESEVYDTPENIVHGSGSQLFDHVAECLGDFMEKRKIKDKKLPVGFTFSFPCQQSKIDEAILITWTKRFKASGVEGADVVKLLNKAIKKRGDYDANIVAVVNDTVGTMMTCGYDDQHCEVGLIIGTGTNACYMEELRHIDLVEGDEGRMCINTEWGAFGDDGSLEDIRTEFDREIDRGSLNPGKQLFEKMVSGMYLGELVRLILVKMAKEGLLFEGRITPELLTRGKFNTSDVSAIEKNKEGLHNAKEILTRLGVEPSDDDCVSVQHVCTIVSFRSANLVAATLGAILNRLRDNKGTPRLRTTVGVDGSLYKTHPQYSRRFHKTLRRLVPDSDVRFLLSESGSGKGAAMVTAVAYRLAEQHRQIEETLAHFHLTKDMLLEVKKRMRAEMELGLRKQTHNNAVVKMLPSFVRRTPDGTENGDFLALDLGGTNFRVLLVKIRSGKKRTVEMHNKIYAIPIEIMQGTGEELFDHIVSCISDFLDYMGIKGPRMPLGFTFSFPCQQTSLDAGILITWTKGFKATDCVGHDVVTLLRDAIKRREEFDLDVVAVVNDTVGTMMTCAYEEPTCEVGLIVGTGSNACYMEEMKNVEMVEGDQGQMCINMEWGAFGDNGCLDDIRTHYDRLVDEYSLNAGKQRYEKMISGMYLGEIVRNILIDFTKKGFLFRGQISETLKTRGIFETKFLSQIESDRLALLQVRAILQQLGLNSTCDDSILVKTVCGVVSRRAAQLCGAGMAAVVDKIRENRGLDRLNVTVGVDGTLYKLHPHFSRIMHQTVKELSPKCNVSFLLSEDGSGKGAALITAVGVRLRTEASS
# UniProt P52789: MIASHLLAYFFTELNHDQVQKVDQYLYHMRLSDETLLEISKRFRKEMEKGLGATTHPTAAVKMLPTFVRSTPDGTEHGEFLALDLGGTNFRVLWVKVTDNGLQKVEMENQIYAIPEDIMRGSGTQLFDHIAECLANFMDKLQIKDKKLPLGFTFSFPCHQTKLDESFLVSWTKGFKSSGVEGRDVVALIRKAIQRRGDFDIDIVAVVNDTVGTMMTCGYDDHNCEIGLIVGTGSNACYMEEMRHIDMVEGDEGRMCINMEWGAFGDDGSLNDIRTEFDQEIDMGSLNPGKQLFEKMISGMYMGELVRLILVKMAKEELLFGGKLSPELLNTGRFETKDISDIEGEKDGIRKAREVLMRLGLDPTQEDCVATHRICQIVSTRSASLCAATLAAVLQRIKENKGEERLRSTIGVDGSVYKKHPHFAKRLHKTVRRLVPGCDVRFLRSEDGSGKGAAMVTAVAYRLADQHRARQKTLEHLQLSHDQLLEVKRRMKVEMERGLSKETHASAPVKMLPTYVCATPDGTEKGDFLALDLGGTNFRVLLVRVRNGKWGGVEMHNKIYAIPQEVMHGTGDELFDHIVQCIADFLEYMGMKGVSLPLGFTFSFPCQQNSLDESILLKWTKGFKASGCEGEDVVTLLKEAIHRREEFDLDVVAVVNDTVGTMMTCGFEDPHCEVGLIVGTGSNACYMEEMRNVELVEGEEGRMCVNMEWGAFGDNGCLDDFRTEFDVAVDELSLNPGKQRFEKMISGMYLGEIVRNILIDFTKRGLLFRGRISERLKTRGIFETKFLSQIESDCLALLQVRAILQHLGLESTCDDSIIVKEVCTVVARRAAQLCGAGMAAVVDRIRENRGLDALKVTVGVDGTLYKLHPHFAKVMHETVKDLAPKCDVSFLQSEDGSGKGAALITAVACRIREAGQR
# Columns and labels:
# [1] = molecular target: hexokinase 1 (Homo sapiens, UniProt P19367); settings: glucokinase versus hexokinase 1; cited from earlier work
# [2] = molecular target: hexokinase 2 (Homo sapiens, UniProt P52789); settings: glucokinase versus hexokinase 2; cited from earlier work
# [3] = test system: healthy volunteers and diabetic patients; settings: single doses up to 180 mg, multiple doses to 150 mg BID for 8 days in healthy volunteers; 200 mg daily up to 6 months in diabetic patients; cited from earlier work
# [4] = glucokinase versus pharmacology screening panel; cited from earlier work
smiles,measurement,setting,value
"COC[C@H](C)Oc1cc(Oc2cnc(C(=O)N3CCC3)cn2)cc(C(=O)Nc2cnc(C)cn2)c1 [AZD1656, 3-{[5-(Azetidin-1-ylcarbonyl)pyrazin-2-yl]oxy}-5-{[(1S)-1-methyl-2-(methyloxy)ethyl]oxy}-N-(5-methylpyrazin-2-yl)benzamide]",selectivity versus hexokinase 1,[1],> 100 fold
same,selectivity versus hexokinase 2,[2],> 100 fold
same,clinical effects (safety),[3],no significant clinical effects other than glucose lowering were noted
same,selectivity versus pharmacology screening panel,[4],> 100 fold
